The test has as its target hSK2 (Homo sapiens, UniProt Q9H2S1). Put plainly: 86Rb+ efflux assay for compound activity towards hSK channels. Format: cell-based. The following applies: read-out: hSK2 Inhibitory Activity; 86Rb+ efflux stimulated with calcium ionophore; drug 0.01 to 30 μM in EBSS.

The results in this text go back to patent US20050227989A1, “Polycyclic thiazoles as potassium ion channel modulators” (ICAgen, Inc., priority 2004, published 2005).

Consider `O=[N+]([O-])c1cnc(Nc2nc(-c3ccccn3)c([N+](=O)[O-])s2)c([N+](=O)[O-])c1`, for which the IC50 fell in the range of 1 to 30 µM.
